Data from ChEMBL document CHEMBL4480409, “SGC-GAK-1: A Chemical Probe for Cyclin G Associated Kinase (GAK)” (J Med Chem, 2019).

Legend:
[1] = biological target: T1, Cyclin-G-associated kinase (Homo sapiens, UniProt O14976); assay: Binding affinity to biotinylated human GAK (13 to 338 residues) expressed in Escherichia coli incubated for 1.5 hrs by fluorescent tracer dependent TR-FRET based competitive ligand binding displacement assay
T1 sequence (O14976 whole entry): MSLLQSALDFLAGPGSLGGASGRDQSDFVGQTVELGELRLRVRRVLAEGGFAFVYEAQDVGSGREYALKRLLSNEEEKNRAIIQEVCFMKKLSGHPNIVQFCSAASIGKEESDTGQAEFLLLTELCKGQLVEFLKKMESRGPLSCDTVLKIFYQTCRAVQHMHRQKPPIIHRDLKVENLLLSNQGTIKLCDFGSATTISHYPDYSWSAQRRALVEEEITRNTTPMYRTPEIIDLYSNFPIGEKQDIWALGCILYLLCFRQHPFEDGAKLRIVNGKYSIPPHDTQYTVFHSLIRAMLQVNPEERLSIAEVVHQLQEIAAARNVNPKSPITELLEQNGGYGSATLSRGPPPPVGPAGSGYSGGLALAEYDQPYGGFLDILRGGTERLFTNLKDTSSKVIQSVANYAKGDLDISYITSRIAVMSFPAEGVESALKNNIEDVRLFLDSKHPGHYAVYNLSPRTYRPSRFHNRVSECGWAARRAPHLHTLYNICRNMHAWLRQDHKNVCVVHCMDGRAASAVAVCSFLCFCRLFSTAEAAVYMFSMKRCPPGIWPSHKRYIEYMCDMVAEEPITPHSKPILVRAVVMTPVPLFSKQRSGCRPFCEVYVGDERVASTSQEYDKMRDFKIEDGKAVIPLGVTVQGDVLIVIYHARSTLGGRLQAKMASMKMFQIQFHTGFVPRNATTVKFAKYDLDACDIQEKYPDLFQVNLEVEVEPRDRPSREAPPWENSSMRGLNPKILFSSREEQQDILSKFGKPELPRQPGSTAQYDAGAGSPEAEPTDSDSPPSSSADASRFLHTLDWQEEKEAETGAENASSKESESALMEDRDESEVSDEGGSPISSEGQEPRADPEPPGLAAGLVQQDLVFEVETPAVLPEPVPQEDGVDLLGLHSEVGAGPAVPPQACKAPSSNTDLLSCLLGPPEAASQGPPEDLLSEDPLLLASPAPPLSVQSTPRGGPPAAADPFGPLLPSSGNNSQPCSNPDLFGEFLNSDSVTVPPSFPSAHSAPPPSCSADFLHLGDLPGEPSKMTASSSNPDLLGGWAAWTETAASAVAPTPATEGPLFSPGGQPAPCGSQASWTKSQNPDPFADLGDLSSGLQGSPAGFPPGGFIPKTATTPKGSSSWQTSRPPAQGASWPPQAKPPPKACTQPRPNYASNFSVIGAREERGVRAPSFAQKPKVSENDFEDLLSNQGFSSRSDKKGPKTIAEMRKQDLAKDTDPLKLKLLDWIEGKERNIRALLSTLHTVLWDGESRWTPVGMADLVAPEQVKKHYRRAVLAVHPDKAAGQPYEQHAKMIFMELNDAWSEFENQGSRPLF

[2] = biological target: T1, Cyclin-G-associated kinase; assay: Displacement of fluorescent tracer from N-terminus of human GAK expressed in HEK293T cells after 2 hrs by NanoBRET target engagement assay; type: cell-based
[3] = biological target: T1, Cyclin-G-associated kinase; assay: Binding affinity to GAK (unknown origin) by ITC assay

Kd [1]: 1.9 nM
IC50 [2]: 120 nM
Kd [3]: 4.5 nM
Structure (SMILES): COc1cc(Nc2ccnc3ccc(Br)cc23)cc(OC)c1OC
